Earlier results as cited in article PMC9667546, “Selective Inhibition of Bruton’s Tyrosine Kinase by a Designed Covalent Ligand Leads to Potent Therapeutic Efficacy in Blood Cancers Relative to Clinically Used Inhibitors” (ACS Pharmacology & Translational Science, 2022).

The chains behind the UniProt entries cited, without tags or fusion partners. Where a name states a change or a piece, a line headed by the entry shows the natural chain unless it says otherwise.
UniProt Q06187: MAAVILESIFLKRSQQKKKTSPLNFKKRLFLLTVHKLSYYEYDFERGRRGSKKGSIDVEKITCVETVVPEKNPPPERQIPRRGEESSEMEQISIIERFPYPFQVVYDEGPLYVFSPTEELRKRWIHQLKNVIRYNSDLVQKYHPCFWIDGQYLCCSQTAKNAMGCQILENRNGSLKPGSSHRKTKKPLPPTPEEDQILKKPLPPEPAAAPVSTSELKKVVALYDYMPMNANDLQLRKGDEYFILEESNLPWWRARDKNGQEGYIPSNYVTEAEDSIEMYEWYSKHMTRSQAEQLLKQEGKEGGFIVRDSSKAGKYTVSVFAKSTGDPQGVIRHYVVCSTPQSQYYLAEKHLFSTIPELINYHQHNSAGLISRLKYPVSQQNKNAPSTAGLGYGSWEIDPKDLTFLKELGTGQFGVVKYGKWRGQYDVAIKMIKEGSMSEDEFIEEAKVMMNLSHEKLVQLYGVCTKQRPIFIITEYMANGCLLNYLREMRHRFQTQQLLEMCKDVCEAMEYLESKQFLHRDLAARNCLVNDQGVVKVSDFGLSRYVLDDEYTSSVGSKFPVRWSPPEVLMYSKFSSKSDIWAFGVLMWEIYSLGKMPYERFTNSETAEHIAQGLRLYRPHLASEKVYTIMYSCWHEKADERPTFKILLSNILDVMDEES

Target: BTK (Homo sapiens, UniProt Q06187)
Parameters: purchased Promega Corporation V2941
Conditions: Table S3 heat map; ref SI 1-19; cited from earlier work

C[C@H]1CN(C2COC2)CCN1c1ccc(Nc2cc(-c3ccnc(N4CCn5c(cc6c5CC(C)(C)C6)C4=O)c3CO)cn(C)c2=O)nc1 [Fenebrutinib, fenebrutinib]
IC50: 2.3 nM
